Biological target: human Nav1.8 (Homo sapiens (Human), UniProt Q9Y5Y9)
Assay: E-VIPR optical membrane potential assay with electrical stimulation
Assay type: cell-based
Conditions: HEK cells expressing human Nav1.8
Excerpt: Sodium channels are voltage-dependent proteins that can be activated by inducing membrane voltage changes by applying electric fields. […] The instrument comprises a microtiter plate handler, an optical system for exciting the coumarin dye while simultaneously recording the coumarin and oxonol emissions, a waveform generator, a current- or voltage-controlled amplifier, and a device for inserting electrodes in well. Under integrated computer control, this instrument passes user-programmed electrical stimulus protocols to cells within the wells of the microtiter plate.
24 hours before the assay on E-VIPR, HEK cells expressing human Nav1.8 were seeded in 384-well poly-lysine coated plates at 15,000-20,000 cells per well. […]
7) Read Plate on E-VIPR. […]
Data was analyzed and reported as normalized ratios of emission intensities measured in the 460 nm and 580 nm channels. […]
The data was further reduced by calculating the initial (Ri) and final (Rf) ratios. […] The response to the stimulus R=Rf/Ri was then calculated and reported as a function of time.
Control responses were obtained by performing assays in the presence of a compound with the desired properties (positive control), such as tetracaine, and in the absence of pharmacological agents (negative control). Responses to the negative (N) and positive (P) controls were calculated as above. […]

Chains of the proteins cited; added tags and fusions are not shown.
UniProt Q9Y5Y9, whole entry: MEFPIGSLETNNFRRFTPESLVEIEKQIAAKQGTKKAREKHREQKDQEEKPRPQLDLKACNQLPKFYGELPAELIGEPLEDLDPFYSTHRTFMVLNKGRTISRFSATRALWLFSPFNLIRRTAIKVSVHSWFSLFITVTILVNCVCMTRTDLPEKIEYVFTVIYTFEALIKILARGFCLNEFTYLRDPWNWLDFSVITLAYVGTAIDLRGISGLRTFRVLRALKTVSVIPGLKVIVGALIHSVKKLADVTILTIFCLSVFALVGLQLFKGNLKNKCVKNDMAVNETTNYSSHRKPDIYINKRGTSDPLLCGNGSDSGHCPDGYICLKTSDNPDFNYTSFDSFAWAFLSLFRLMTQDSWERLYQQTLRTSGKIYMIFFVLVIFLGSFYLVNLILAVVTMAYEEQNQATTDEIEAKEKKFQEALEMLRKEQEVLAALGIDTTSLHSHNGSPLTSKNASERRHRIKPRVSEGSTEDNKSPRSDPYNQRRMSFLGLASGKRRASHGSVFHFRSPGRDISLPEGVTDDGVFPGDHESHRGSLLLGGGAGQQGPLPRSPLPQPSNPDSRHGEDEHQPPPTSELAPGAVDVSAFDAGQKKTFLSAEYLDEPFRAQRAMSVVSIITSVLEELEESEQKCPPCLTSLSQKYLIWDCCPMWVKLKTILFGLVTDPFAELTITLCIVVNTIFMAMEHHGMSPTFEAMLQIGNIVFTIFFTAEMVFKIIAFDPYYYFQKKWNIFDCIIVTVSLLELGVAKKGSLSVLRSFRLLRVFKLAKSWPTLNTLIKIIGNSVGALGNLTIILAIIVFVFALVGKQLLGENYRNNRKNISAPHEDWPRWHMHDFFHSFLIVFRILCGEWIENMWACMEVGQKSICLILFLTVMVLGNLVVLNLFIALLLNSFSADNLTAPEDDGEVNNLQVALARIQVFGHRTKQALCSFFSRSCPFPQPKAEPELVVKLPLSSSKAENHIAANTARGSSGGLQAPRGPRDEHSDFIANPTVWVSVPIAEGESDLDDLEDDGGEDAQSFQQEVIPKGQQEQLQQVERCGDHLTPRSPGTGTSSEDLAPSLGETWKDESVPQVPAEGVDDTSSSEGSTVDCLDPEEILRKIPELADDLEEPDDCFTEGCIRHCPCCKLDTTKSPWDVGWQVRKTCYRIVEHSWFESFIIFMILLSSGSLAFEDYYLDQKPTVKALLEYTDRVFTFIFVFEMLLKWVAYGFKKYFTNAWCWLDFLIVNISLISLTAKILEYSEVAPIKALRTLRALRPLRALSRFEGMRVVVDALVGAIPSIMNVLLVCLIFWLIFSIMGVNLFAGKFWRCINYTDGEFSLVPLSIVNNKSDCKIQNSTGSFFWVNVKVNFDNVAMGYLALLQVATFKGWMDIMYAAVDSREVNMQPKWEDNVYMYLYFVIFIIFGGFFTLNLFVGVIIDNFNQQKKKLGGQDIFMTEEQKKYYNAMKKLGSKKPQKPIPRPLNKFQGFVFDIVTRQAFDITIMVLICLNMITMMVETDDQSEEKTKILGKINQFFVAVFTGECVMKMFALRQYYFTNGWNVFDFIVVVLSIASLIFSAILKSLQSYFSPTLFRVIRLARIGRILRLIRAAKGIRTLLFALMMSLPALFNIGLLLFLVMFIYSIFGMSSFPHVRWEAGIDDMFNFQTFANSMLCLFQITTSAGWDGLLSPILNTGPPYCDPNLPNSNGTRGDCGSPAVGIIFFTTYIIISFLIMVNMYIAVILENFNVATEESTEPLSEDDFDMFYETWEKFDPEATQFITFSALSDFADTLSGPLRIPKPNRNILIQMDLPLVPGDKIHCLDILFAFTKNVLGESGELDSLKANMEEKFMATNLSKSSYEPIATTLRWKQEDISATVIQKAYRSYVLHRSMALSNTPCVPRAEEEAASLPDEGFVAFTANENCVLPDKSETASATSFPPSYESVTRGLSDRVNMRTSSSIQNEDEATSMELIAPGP

For “2-(4-fluoro-2-methylphenoxy)-N-(2-oxo-1,2-dihydropyridin-4-yl)-5-(trifluoromethyl)benzamide [Compound 106]”, the IC50 was 99 nM.
